These results are taken from patent publication EP0944648B1, “GLP-1 DERIVATIVES” (NOVO NORDISK A/S, priority 1996, dated 1998).

The chains behind the UniProt entries cited, without tags or fusion partners. Residues count along the entry.
UniProt P43220, 24-463: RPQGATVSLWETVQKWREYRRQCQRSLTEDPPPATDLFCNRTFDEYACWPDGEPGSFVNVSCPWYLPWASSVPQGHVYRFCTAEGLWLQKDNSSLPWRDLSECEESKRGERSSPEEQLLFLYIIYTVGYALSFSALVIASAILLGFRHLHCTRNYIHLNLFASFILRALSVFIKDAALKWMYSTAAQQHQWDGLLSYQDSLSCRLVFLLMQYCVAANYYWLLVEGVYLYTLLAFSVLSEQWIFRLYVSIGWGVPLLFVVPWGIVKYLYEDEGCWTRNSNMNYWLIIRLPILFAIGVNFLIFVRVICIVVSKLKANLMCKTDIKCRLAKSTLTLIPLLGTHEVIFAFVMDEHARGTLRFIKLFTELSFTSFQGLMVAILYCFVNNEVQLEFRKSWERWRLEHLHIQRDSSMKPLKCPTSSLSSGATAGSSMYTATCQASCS

For orientation: EC50 means the concentration giving half of the maximal effect. A lower EC50 goes with a more potent agent.

The conditions of data set [1]: in humans; cited from earlier work.
The nature of data set [2]: Protraction after s.c. administration: plasma concentration in pigs determined by RIA. The data set is classed as in vivo. As to conditions: 0.5 nmol/kg, healthy pigs, n=2. Here is the method: The protraction of a number GLP-1 derivatives of the invention was determined by monitoring the concentration thereof in plasma after sc administration to healthy pigs, using the method described below. […]. The protraction of other GLP-1 derivatives of the invention can be determined in the same way.
Pigs (50% Duroc, 25% Yorkshire, 25% Danish Landrace, app 40 kg) were fasted from the beginning of the experiment. To each pig 0.5 nmol of test compound per kg body weight was administered in a 50 µM isotonic solution (5 mM phosphate, pH 7.4, 0.02% Tween®-20 (Merck), 45 mg/ml mannitol (pyrogen free, Novo Nordisk). Blood samples were drawn from a catheter in vena jugularis at the hours indicated in Table 1. 5 ml of the blood samples were poured into chilled glasses containing 175 µl of the following solution: 0.18 M EDTA, 1500 KIE/ml aprotinin (Novo Nordisk) and 3% bacitracin (Sigma), pH 7.4. Within 30 min, the samples were centrifuged for 10 min at 5-6000*g. Temperature was kept at 4°C. The supernatant was pipetted into different glasses and kept at minus 20°C until use.
[…]. The cross reactivities were less than 1% with GLP-1(1-37) and GLP-1(8-36)amide and < 0.1% with GLP-1 (9-37), GLP-1(10-36)amide and GLP-1 (11-36)amide. The entire procedure was carried out at 4°C.
The assay was carried out as follows: 100 µl plasma was mixed with 271 µl 96% ethanol, mixed using a vortex mixer and centrifuged at 2600*g for 30 min. The supernatant was decanted into Minisorp tubes and evaporated completely (Savant Speedvac AS290). The evaporation residue was reconstituted in the assay buffer consisting of 80 mM NaH2PO4/Na2HPO4, 0.1 % HSA (Orpha 20/21, Behring), 10 mM EDTA, 0.6 mM thiomersal (Sigma), pH 7.5. Samples were reconstituted in volumes suitable for their expected concentrations, and were allowed to reconstitute for 30 min. To 300 µl sample, 100 µl antibody solution in dilution buffer containing 40 mM NaH2PO4/Na2HPO4, 0.1 % HSA, 0.6 mM thiomersal, pH 7.5, was added. A non-specific sample was prepared by mixing 300 µl buffer with 100 µl dilution buffer. Individual standards were prepared from freeze dried stocks, dissolved in 300 µl assay buffer. All samples were pre-incubated in Minisorp tubes with antibody as described above for 72 h. 200 µl tracer in dilution buffer containing 6-7000 CPM was added, samples were mixed and incubated for 48 h. 1.5 ml of a suspension of 200 ml per litre of heparin-stabilised bovine plasma and 18 g per litre of activated carbon (Merck) in 40 mM NaH2PO4/Na2HPO4, 0.6 mM thiomersal, pH 7.5, was added to each tube. Before use, the suspension was mixed and allowed to stand for 2 h at 4°C. All samples were incubated for 1 h at 4°C and then centrifuged at 3400*g for 25 min. Immediately after the centrifugation, the supernatant was decanted and counted in a γ-counter. The concentration in the samples was calculated from individual standard curves. The following plasma concentrations were found, calculated as % of the maximum concentration for the individual compounds (n=2): Table 1

The target in data set [3] is cloned human GLP-1 receptor (Homo sapiens, UniProt P43220). Conditions: cAMP formation; membrane preparation incubated 2 h at 37°C; 0.1 % human serum albumin. Background: Cyclic AMP is a second messenger, typically raised through Gs and lowered through Gi signalling.
[4] abbreviates: 0.75 hours after sc. administration.
Setting [5] is: 1 hour after sc. administration.
The mark [6] stands for this setting: 2 hours after sc. administration.
Where [7] appears, read: 4 hours after sc. administration.
[8] abbreviates: 6 hours after sc. administration.
Setting [9] is: 8 hours after sc. administration.
The mark [10] stands for this setting: 10 hours after sc. administration.
The mark [11] stands for this setting: 24 hours after sc. administration.
[12] abbreviates: 12 hours after sc. administration.

For glucagon-like peptide-1 [GLP-1], the plasma half-life in data set [1] is given as 2 min.

Turning to “Lys^26,34bis(N^ε-(ω-carboxyundecanoyl))-GLP-1(7-37)-OH [Example 17]”, the “plasma concentration, calculated as % of the maximum concentration for the individual compound” value (“plasma concentration, calculated as %” below) in data set [2] (setting [4]) was 76%; in data set [2] (setting [5]) it was 71%; in data set [2] (setting [6]), 91%; in data set [2] (setting [7]), 100%; in data set [2] (setting [8]), 84%; in data set [2] (setting [9]), 68%. Moreover, the “plasma concentration, calculated as %” value is 30% in data set [2] (setting [10]) and 9% in data set [2] (setting [11]).

In the case of “Arg^34Lys^26(N^ε-(γ-glutamyl(N^α-hexadecanoyl)))-GLP-1(7-37)-OH [Example 37]”, the EC50 in data set [3] came to 0.06 nM. For the same substance, the “plasma concentration, calculated as %” value is 26% in data set [2] (setting [5]); 38% in data set [2] (setting [6]); 97% in data set [2] (setting [7]); 100% in data set [2] (setting [8]); 71% in data set [2] (setting [9]); 81% in data set [2] (setting [10]). Moreover, the results for the “plasma concentration, calculated as %” value in data set [2] (setting [12]) and in data set [2] (setting [11]) were 80% and 45%, respectively.

For the substance “Arg^26,34Lys^36 (N^ε-(ω-carboxyheptadecanoyl))-GLP-1 (7-36)-OH [Example 14]”, the “plasma concentration, calculated as %” value is reported as 18% in data set [2] (setting [4]); 25% in data set [2] (setting [5]); 32% in data set [2] (setting [6]); 47% in data set [2] (setting [7]); 98% in data set [2] (setting [8]); 83% in data set [2] (setting [9]). Further, the “plasma concentration, calculated as %” value in data set [2] (setting [10]) is 97%; in data set [2] (setting [11]) it was 100%.

For “Arg^26,34Lys^38(N^ε-(γ-glutamyl(N^α-tetradecanoyl)))-GLP-1 (7-38)-OH [Example 38]”, the “plasma concentration, calculated as %” value is given as 60% in data set [2] (setting [4]); 53% in data set [2] (setting [5]); 100% in data set [2] (setting [6]); 66% in data set [2] (setting [7]); 48% in data set [2] (setting [8]); 39% in data set [2] (setting [9]). Also, the “plasma concentration, calculated as %” value is recorded as 25% in data set [2] (setting [10]), 29% in data set [2] (setting [12]) and 0% in data set [2] (setting [11]).

Regarding “Arg^34Lys^26 (N^ε-(ω-carboxyheptadecanoyl))-GLP-1 (7-37)-OH [Example 11]”, the “plasma concentration, calculated as %” value in data set [2] (setting [4]) is reported as 24%; in data set [2] (setting [5]), 47%; in data set [2] (setting [6]) it was 59%; in data set [2] (setting [7]), 71%; in data set [2] (setting [8]) it was 100%; in data set [2] (setting [9]), 94%. For the same substance, the figures for the “plasma concentration, calculated as %” value in data set [2] (setting [10]) and in data set [2] (setting [11]) were 100% and 94%, respectively.

As for “Arg^26,34Lys^38(N^ε-(ω-carboxyheptadecanoyl))-GLP-1 (7-38)-OH [Example 13]”, the “plasma concentration, calculated as %” value in data set [2] (setting [4]) is 15%; in data set [2] (setting [5]), 22%; in data set [2] (setting [6]) it was 38%; in data set [2] (setting [7]), 59%; in data set [2] (setting [8]) it was 97%; in data set [2] (setting [9]), 85%. For the same substance, the “plasma concentration, calculated as %” value in data set [2] (setting [10]) is 100%; in data set [2] (setting [11]), 76%.

Take “Lys^26,34-bis(N^ε-(ω-carboxytridecanoyl))-GLP-1 (7-37)-OH [Example 32]”: the “plasma concentration, calculated as %” value is 55% in data set [2] (setting [4]); 53% in data set [2] (setting [5]); 90% in data set [2] (setting [6]); 83% in data set [2] (setting [7]); 88% in data set [2] (setting [8]); 70% in data set [2] (setting [9]). Also, the entries for the “plasma concentration, calculated as %” value in data set [2] (setting [10]), in data set [2] (setting [12]) and in data set [2] (setting [11]) were 98%, 100% and 100%, respectively.

On to “Arg^26,34Lys^38(N^ε-(ω-carboxypentadecanoyl))-GLP-1 (7-38)-OH [Example 34]”, for which the “plasma concentration, calculated as %” value is reported as 19% in data set [2] (setting [4]); 32% in data set [2] (setting [5]); 44% in data set [2] (setting [6]); 84% in data set [2] (setting [7]); 59% in data set [2] (setting [8]); 66% in data set [2] (setting [9]). The figures for the “plasma concentration, calculated as %” value in data set [2] (setting [10]), in data set [2] (setting [12]) and in data set [2] (setting [11]) were 83%, 84% and 100%, respectively.

Consider “Arg^26,34Lys^36 (N^ε-(ω-carboxyheptadecanoyl))-GLP-1 (7-37)-OH [Example 12]”, for which the “plasma concentration, calculated as %” value in data set [2] (setting [4]) is on record as 36%; in data set [2] (setting [5]) it was 54%; in data set [2] (setting [6]) it was 65%; in data set [2] (setting [7]) it was 94%; in data set [2] (setting [8]), 80%; in data set [2] (setting [9]) it was 100%. The results for the “plasma concentration, calculated as %” value in data set [2] (setting [10]) and in data set [2] (setting [11]) were 85% and 93%, respectively.
